According to US20060127935A1, “Identification and use of prognostic and predictive markers in cancer treatment” (NSABP Foundation, Inc., priority 2004, published 2006):

Legend:
[1] = test system: early stage breast cancer with HER2 gene amplification/overexpression; assay: NSABP trial B-31 retrospective analysis: recurrence free survival by cMYC amplification status (FISH), chemotherapy vs chemotherapy plus Trastuzumab; type: in vivo; settings: patients with no amplification of cMYC gene (N=945), HER2 amplified/overexpressing
[2] = test system: early stage breast cancer which have HER2 protein overexpression or HER2 gene amplification; settings: adjuvant setting; cited from earlier work

## Trastuzumab
[1]
  reduction in recurrence rate when Trastuzumab was added to chemotherapy: 34%
[2]
  overall reduction in recurrence rate with Herceptin compared to chemotherapy alone: about 50%
